Measured values reported in PMC1784591 (Infectious Diseases in Obstetrics and Gynecology, 2004).

Tested on: term human placenta (single cotyledon)

antipyrine 14C was tested, and the “single pass maternal-fetal transfer” value was greater than 40% and the transport fraction was greater than 1.85.
